This note sets out measurements from patent US9751885B2, “Cyclopropanamine compound and use thereof” (Takeda Pharmaceutical Company Limited, priority 2012, dated 2017).

Protein sequences, listed by entry. Tags and fused reporters are not part of them.
UniProt P21397, whole entry: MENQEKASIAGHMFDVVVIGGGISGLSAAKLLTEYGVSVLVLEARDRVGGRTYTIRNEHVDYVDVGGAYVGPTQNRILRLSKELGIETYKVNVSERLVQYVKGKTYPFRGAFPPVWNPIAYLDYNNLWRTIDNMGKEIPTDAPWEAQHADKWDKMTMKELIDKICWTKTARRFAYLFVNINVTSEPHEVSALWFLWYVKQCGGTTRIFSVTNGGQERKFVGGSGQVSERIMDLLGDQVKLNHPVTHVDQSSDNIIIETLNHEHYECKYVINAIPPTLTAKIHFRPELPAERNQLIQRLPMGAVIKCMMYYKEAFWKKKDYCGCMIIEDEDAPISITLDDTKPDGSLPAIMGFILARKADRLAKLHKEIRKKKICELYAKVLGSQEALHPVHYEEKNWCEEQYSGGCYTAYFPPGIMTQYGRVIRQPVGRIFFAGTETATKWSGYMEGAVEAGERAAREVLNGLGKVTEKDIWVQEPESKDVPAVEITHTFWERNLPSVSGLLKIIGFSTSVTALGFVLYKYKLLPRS
UniProt P27338, whole entry: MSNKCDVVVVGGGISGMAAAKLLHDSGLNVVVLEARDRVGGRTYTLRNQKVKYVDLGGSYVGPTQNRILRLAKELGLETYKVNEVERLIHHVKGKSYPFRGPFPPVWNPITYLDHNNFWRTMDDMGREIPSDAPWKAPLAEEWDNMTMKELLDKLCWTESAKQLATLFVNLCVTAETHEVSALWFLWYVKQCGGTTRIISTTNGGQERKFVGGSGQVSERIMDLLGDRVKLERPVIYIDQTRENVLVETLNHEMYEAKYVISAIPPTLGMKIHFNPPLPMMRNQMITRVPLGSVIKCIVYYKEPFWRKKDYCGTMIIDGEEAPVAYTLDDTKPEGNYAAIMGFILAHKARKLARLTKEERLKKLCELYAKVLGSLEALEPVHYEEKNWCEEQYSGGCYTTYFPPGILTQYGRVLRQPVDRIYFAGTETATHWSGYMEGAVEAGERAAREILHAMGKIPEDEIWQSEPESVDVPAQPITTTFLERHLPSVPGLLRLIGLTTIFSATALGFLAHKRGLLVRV

One test deals with MAO-A enzyme (Homo sapiens (Human), UniProt P21397). Nature of the test: Measurement of MAO-A inhibitory activity (MAO-Glo Assay). Type of test: biochemical.
In another test the target is MAO-B enzyme (Homo sapiens (Human), UniProt P27338). Put plainly: Measurement of MAO-B inhibitory activity (MAO-Glo Assay).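 Note: luminescence read-out, compound preincubated 10 min with enzyme then reacted 60 min at room temperature, inhibition relative to enzyme reaction without compound, blank lacking enzyme and compound.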 Conditions: read-out: MAO-B IC50 value.

Where a name gives a salt, the structure may show the parent alone.

With `Cc1nc(-c2cccc(NC(=O)c3cccc([C@@H]4C[C@H]4NCC4CC4)c3)c2)cs1` (relative stereo) [Example 131, 3-(trans-2-((cyclopropylmethyl)amino)cyclopropyl)-N-(3-(2-methyl-1,3-thiazol-4-yl)phenyl)benzamide trifluoroacetate], the 50% inhibitory concentration (IC50) against MAO-A enzyme and at MAO-B enzyme was > 10 µM each time.
Take `O=C(NC1CCC(F)(F)CC1)c1cccc([C@@H]2C[C@H]2NCC2CCOCC2)c1` (relative stereo) [Example 84, N-(4,4-difluorocyclohexyl)-3-(trans-2-((tetrahydro-2H-pyran-4-ylmethyl)amino)cyclopropyl)benzamide hydrochloride]: the IC50 against MAO-A enzyme and at MAO-B enzyme was > 10 µM in each case.
With `COc1ccc([C@@H]2C[C@H]2NCC2CC2)cc1C(=O)NC1CCOCC1` (relative stereo) [Example 160, 5-(trans-2-((cyclopropylmethyl)amino)cyclopropyl)-2-methoxy-N-(tetrahydro-2H-pyran-4-yl)benzamide hydrochloride], the IC50 against MAO-A enzyme and on MAO-B enzyme was > 10 µM throughout.
`O=C(Nc1ccc(F)cc1)c1cccc([C@@H]2C[C@H]2NC2CCOCC2)c1` (relative stereo) [Example 207, N-(4-fluorophenyl)-3-(trans-2-(tetrahydro-2H-pyran-4-ylamino)cyclopropyl)benzamide hydrochloride]: the IC50 against MAO-A enzyme and at MAO-B enzyme was > 10 µM each time.
In the case of `N[C@@H]1C[C@H]1c1cccc(C(=O)Nc2ccc(-c3ncccn3)cc2)c1` (relative stereo) [Example 54, 3-(trans-2-aminocyclopropyl)-N-(4-(pyrimidin-2-yl)phenyl)benzamide dihydrochloride], the concentration for half-maximal inhibition (IC50) against MAO-A enzyme was > 10 µM; on MAO-B enzyme, 3.7 µM.
In the case of `COc1ccc([C@@H]2C[C@H]2N)cc1C(=O)NC1CCCC1` (relative stereo) [Example 76, 5-(trans-2-aminocyclopropyl)-N-cyclopentyl-2-methoxybenzamide hydrochloride], the concentration for half-maximal inhibition (IC50) against MAO-A enzyme and on MAO-B enzyme was > 10 µM each time.
Consider `O=C(Nc1cccc(-c2ccccc2)c1)c1cccc([C@@H]2C[C@H]2NCC2CC2)c1` (relative stereo) [Example 130, N-(biphenyl-3-yl)-3-(trans-2-((cyclopropylmethyl)amino)cyclopropyl)benzamide trifluoroacetate], for which the IC50 at MAO-A enzyme is 7.2 µM; at MAO-B enzyme, > 10 µM.
Consider `Cn1cc(NC(=O)c2cccc([C@@H]3C[C@H]3NC3CCC(F)(F)CC3)c2)cn1` (relative stereo) [Example 205, 3-(trans-2-((4,4-difluorocyclohexyl)amino)cyclopropyl)-N-(1-methyl-1H-pyrazol-4-yl)benzamide dihydrochloride], for which the IC50 against MAO-A enzyme and on MAO-B enzyme was > 10 µM throughout.
With `O=C(c1cccc([C@@H]2C[C@H]2NCC2CC2)c1)N1CCCC1` (relative stereo) [Example 61, (3-(trans-2-((cyclopropylmethyl)amino)cyclopropyl)phenyl)(pyrrolidin-1-yl)methanone hydrochloride], the 50% inhibitory concentration (IC50) against MAO-A enzyme and on MAO-B enzyme was > 10 µM throughout.
On to `O=C(NC1CCCC1)c1cccc([C@@H]2C[C@H]2NC2CCS(=O)(=O)CC2)c1` (relative stereo) [Example 198, N-cyclopentyl-3-(trans-2-((1,1-dioxidotetrahydro-2H-thiopyran-4-yl)amino)cyclopropyl)benzamide hydrochloride], for which the half-maximal inhibitory concentration (IC50) on MAO-A enzyme and on MAO-B enzyme was > 10 µM in each case.
Turning to `O=C(Nc1ccc(CN2CCS(=O)(=O)CC2)cc1)c1cccc([C@@H]2C[C@H]2NCC2CC2)c1` (relative stereo) [Example 126, 3-(trans-2-((cyclopropylmethyl)amino)cyclopropyl)-N-(4-((1,1-dioxidothiomorpholin-4-yl)methyl)phenyl)benzamide bis (trifluoroacetate)], the IC50 against MAO-A enzyme and at MAO-B enzyme was > 10 µM in each case.
Regarding `N[C@@H]1C[C@H]1c1cccc(C(=O)Nc2ccccc2)c1` (relative stereo) [Example 11, 3-(trans-2-aminocyclopropyl)-N-phenylbenzamide hydrochloride], the values for the IC50 at MAO-A enzyme and at MAO-B enzyme were 5.9 µM and > 10 µM, respectively.
For `N[C@@H]1C[C@H]1c1cccc(C(=O)Nc2cnn(-c3ccc(F)cc3)c2)c1` (relative stereo) [Example 71, 3-(trans-2-aminocyclopropyl)-N-(1-(4-fluorophenyl)-1H-pyrazol-4-yl)benzamide dihydrochloride] the same measures were 10 µM and 0.39 µM.
Consider `Cc1noc(C)c1NC(=O)c1cccc([C@@H]2C[C@H]2NCC2CC2)c1` (relative stereo) [Example 142, 3-(trans-2-((cyclopropylmethyl)amino)cyclopropyl)-N-(3,5-dimethyl-1,2-oxazol-4-yl)benzamide trifluoroacetate], for which the concentration for half-maximal inhibition (IC50) against MAO-A enzyme and on MAO-B enzyme was > 10 µM each time.
With `COc1ccc([C@@H]2C[C@H]2NCC2CC2)cc1C(=O)Nc1nnc(C)s1` (relative stereo) [Example 159, 5-(trans-2-((cyclopropylmethyl)amino)cyclopropyl)-2-methoxy-N-(5-methyl-1,3,4-thiadiazol-2-yl)benzamide dihydrochloride], the 50% inhibitory concentration (IC50) against MAO-A enzyme and at MAO-B enzyme was > 10 µM in each case.
For the compound `O=C(Nc1nccs1)c1cccc([C@@H]2C[C@H]2NCC2CC2)c1` (relative stereo) [Example 138, 3-(trans-2-((cyclopropylmethyl)amino)cyclopropyl)-N-(1,3-thiazol-2-yl)benzamide trifluoroacetate], the IC50 on MAO-A enzyme and at MAO-B enzyme was > 10 µM throughout.
With `Cn1nc(-c2cccs2)cc1NC(=O)c1cccc([C@@H]2C[C@H]2NCC2CC2)c1` (relative stereo) [Example 136, 3-(trans-2-((cyclopropylmethyl)amino)cyclopropyl)-N-(1-methyl-3-(2-thienyl)-1H-pyrazol-5-yl)benzamide bis(trifluoroacetate)], the half-maximal inhibitory concentration (IC50) on MAO-A enzyme and on MAO-B enzyme was > 10 µM in each case.
As to `COc1ccc([C@@H]2C[C@H]2NC2CCC2)cc1C(=O)Nc1cnn(C)c1` (relative stereo) [Example 226, 5-(trans-2-(cyclobutylamino)cyclopropyl)-2-methoxy-N-(1-methyl-1H-pyrazol-4-yl)benzamide dihydrochloride], the IC50 against MAO-A enzyme and at MAO-B enzyme was > 10 µM throughout.
As to `CCn1cc(NC(=O)c2cccc([C@@H]3C[C@H]3N)c2)cn1` (relative stereo) [Example 74, 3-(trans-2-aminocyclopropyl)-N-(1-ethyl-1H-pyrazol-4-yl)benzamide dihydrochloride], the IC50 against MAO-A enzyme and at MAO-B enzyme was > 10 µM throughout.
In the case of `COc1cc(C(=O)Nc2nnc(C)s2)cc([C@@H]2C[C@H]2NCC2CC2)c1` (relative stereo) [Example 163, 3-(trans-2-((cyclopropylmethyl)amino)cyclopropyl)-5-methoxy-N-(5-methyl-1,3,4-thiadiazol-2-yl)benzamide dihydrochloride], the half-maximal inhibitory concentration (IC50) on MAO-A enzyme and on MAO-B enzyme was > 10 µM in each case.
On to `Cn1cc(NC(=O)c2cc([C@@H]3C[C@H]3NCC3CC3)ccc2F)cn1` (relative stereo) [Example 91, 5-(trans-2-((cyclopropylmethyl)amino)cyclopropyl)-2-fluoro-N-(1-methyl-1H-pyrazol-4-yl)benzamide dihydrochloride], for which the concentration for half-maximal inhibition (IC50) against MAO-A enzyme and at MAO-B enzyme was > 10 µM each time.
`COc1ccc([C@@H]2C[C@H]2NC2CCC(F)(F)CC2)cc1C(=O)Nc1cnn(C)c1` (relative stereo) [Example 227, 5-(trans-2-((4,4-difluorocyclohexyl)amino)cyclopropyl)-2-methoxy-N-(1-methyl-1H-pyrazol-4-yl)benzamide dihydrochloride]: the half-maximal inhibitory concentration (IC50) at MAO-A enzyme and on MAO-B enzyme was > 10 µM each time.
`Cc1ccc(C(=O)NC2CCOCC2)cc1[C@@H]1C[C@H]1NCC1CC1` (relative stereo) [Example 230, 3-(trans-2-((cyclopropylmethyl)amino)cyclopropyl)-4-methyl-N-(tetrahydro-2H-pyran-4-yl)benzamide hydrochloride]: the IC50 at MAO-A enzyme and on MAO-B enzyme was > 10 µM in each case.
Consider `O=C(NC1CCN(Cc2ccccc2)C1)c1cccc(C2CC2NCC2CC2)c1` (stereo not drawn) [Example 118, N-(1-benzylpyrrolidin-3-yl)-3-(trans-2-((cyclopropylmethyl)amino)cyclopropyl)benzamide bis(trifluoroacetate)], for which the IC50 against MAO-A enzyme and at MAO-B enzyme was > 10 µM in each case.
In the case of `Cc1cc(NC(=O)c2cccc([C@@H]3C[C@H]3N)c2)n(C)n1` (relative stereo) [Example 180, 3-(trans-2-aminocyclopropyl)-N-(1,3-dimethyl-1H-pyrazol-5-yl)benzamide dihydrochloride], the IC50 against MAO-A enzyme and on MAO-B enzyme was > 10 µM throughout.
As to `O=C(NC1CCOCC1)c1ccc(F)c([C@@H]2C[C@H]2NCC2CC2)c1` (relative stereo) [Example 229, 3-(trans-2-((cyclopropylmethyl)amino)cyclopropyl)-4-fluoro-N-(tetrahydro-2H-pyran-4-yl)benzamide hydrochloride], the half-maximal inhibitory concentration (IC50) on MAO-A enzyme and on MAO-B enzyme was > 10 µM each time.
In the case of `Cc1nnc(NC(=O)c2ccc(C)c([C@@H]3C[C@H]3NCC3CC3)c2)s1` (relative stereo) [Example 161, 3-(trans-2-((cyclopropylmethyl)amino)cyclopropyl)-4-methyl-N-(5-methyl-1,3,4-thiadiazol-2-yl)benzamide dihydrochloride], the IC50 on MAO-A enzyme and at MAO-B enzyme was > 10 µM each time.
Turning to `COc1ccc(C(=O)Nc2nnc(C)s2)cc1[C@@H]1C[C@H]1NCC1CC1` (relative stereo) [Example 162, 3-(trans-2-((cyclopropylmethyl)amino)cyclopropyl)-4-methoxy-N-(5-methyl-1,3,4-thiadiazol-2-yl)benzamide dihydrochloride], the IC50 against MAO-A enzyme and at MAO-B enzyme was > 10 µM each time.

A word on the IC50: it is the midpoint of a concentration-inhibition curve.
